# A selection: hits, their analogues and other compounds. The true share with any hit is near 1.2%.
# C2C12 statin – suppression of simvastatin myotoxicity. C2C12 myotubes + simvastatin, ATP luminescence, 48 h; scaled: DMSO 0, geranylgeraniol control 100. AID 602340. 330,000 compounds, 0.78% hits. rescue of ATP level, % at 7.49 µM;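 active means mean ATP rescue above about 67%, or every replicate alone reaching that limit, limit read from the data, passing the limit was not always enough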;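 further: myotubes were challenged with 10 µM simvastatin during compound exposure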
# Yeast UUG start – alters start codon recognition fidelity in yeast. S. cerevisiae UUG-firefly luciferase reporter, luminescence/redox ratio. AID 602363. activity score, % at 18.7 µM. hit rate 0.13% among 350,000;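 active = replicate mean at a twofold rise or more, about +100% in these data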;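 note: firefly luciferase made from a UUG start codon reports start codon fidelity; reporter light over untreated wells divided by growth signal over untreated wells; some hits fall short of that in this replicate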
# miR-122 sensor – blocks miR-122 activity in Huh7 sensor cells. Huh7 miR-122 Renilla luciferase sensor, 48 h; neutral wells = 0, positive control = 100. activation (reporter increase), % at 12.5 µM. 340,000 compounds, 0.3% hits;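 active means mean replicate activation score at least 90 and every replicate individually at or above 90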;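 further: higher luciferase means less miR-122 activity so hits act as miR-122 inhibitors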
# Cneo AK release – causes C. neoformans cell lysis; adenylate kinase release luminescence, 4 h; normalised: neutral wells 0, clomiphene wells 100; lysis activity, % at 15 µM; 360,000 compounds, 0.2% hits;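 active means mean lysis activity across replicates of at least 80%, whatever share of replicates individually reach that level; inactive means mean lysis activity below 80%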
#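 Schedule: static 4 h at 37 °C with compound, 1 h detection; system: C. neoformans cells; benchmarks: Clomiphene as positive control; buffer or medium: fresh YPD medium; measure: luminescence rise reflecting yeast cell lysis; measured by: luminescent adenylate kinase detection reagent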
# Glyco luc inh – blocks N-linked glycosylation in D54 reporter cells. reporter increase, % at 12.5 µM. 360,000 compounds, 0.23% hits. D54 ERlucT glycosylation luciferase reporter, 24 h; percent of 100 nM tunicamycin response;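 active means mean luciferase reporter signal, scaled so untreated is 0 and the glycosylation-blocking control 100, at or above a set limit in every replicate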;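 further: luciferase carries N-glycosylation sites so blocking glycosylation raises the light; 0% = median of neutral control wells and 100% = median of 100 nM tunicamycin wells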
# * = called active by the depositor; · = no result; [ ] = dose if it differs, or a comment.
# Letters – A = C2C12 statin; B = Yeast UUG start; C = miR-122 sensor; D = Cneo AK release; E = Glyco luc inh
> O=C(C[C@@H]1CC[C@H]2[C@@H](COC[C@H](O)CN2Cc2cccc(C(F)(F)F)c2)O1)NCc1ccccc1
  A = 13.4	B = ·	C = 30.2[16.7 µM]	D = 99.7*	E = ·
> O=C(C[C@@H]1CC[C@@H]2[C@H](COC[C@@H](O)CN2Cc2cccc(C(F)(F)F)c2)O1)NCc1ccc(Cl)cc1
  A = -5.3	B = ·	C = 1.0[16.7 µM]	D = 60.4	E = ·
> COc1cccc(S(=O)(=O)N[C@@H]2C=C[C@@H](CC(=O)NC3CCC3)O[C@@H]2CO)c1
  A = -0.8	B = -9.0	C = ·	D = 3.5	E = ·
> O=C(C[C@H]1CC[C@@H]2[C@H](COC[C@H](O)CN2CC2CCOCC2)O1)NCc1ccc(Cl)cc1
  A = -2.4	B = ·	C = 3.3[16.7 µM]	D = 86.3*	E = ·
> COc1cccc(-c2ccc3n(c2=O)C[C@@H]2[C@@H](CO)[C@H](C(=O)N(C)C)N(CC4CC4)[C@H]32)c1
  A = 4.9	B = ·	C = -4.2[16.7 µM]	D = 0.5	E = ·
> CCNC(=O)Nc1ccc2c(c1)C(=O)N(C)[C@@H]1CC[C@H](CC(=O)NCCN3CCCC3)O[C@@H]1CO2
  A = 9.7	B = -10.0	C = 0.0[16.7 µM]	D = -2.9	E = ·
> Cc1nn(C(=O)c2cccnc2)c(C)c1Sc1ccc(Br)cc1
  A = 74.9*	B = -20.8	C = 0.4	D = -1.1	E = 1.5
> CNC(=O)C[C@H]1CC[C@H]2[C@@H](COc3ccc(NC(=O)Nc4cccc(Cl)c4)cc3C(=O)N2C)O1
  A = 28.8	B = 24.2	C = -6.4[16.7 µM]	D = 2.2	E = ·
> CC(=O)Nc1ccc2cc3ccc(NC(C)=O)cc3nc2c1
  A = 8.6	B = 25.2	C = -7.3	D = -0.5	E = 36.3*
> CC1(C)C(=O)Nc2ccccc2N1C(=O)COC(=O)C12CC3CC(CC(O)(C3)C1)C2
  A = 89.2*	B = -1.0	C = ·	D = 0.2	E = -0.8
> CC(C)CC#Cc1cnc2c(c1)C(=O)N([C@@H](C)CO)C[C@H](C)[C@@H](CN(C)C(=O)c1ccc3c(c1)OCO3)O2
  A = 6.9	B = 20.0	C = 4.1[16.7 µM]	D = 1.3	E = ·
> C[C@H](CO)N1C[C@H](C)[C@H](CN(C)C(=O)Nc2ccc3c(c2)OCO3)Oc2ncc(-c3ccc(F)cc3)cc2C1=O
  A = -6.9	B = 20.5	C = 19.0[16.7 µM]	D = 90.8*	E = ·
> CC(C)CC#Cc1cnc2c(c1)C(=O)N([C@H](C)CO)C[C@@H](C)[C@@H](CN(C)C(=O)c1ccc3c(c1)OCO3)O2
  A = 12.5	B = 14.9	C = -3.2[16.7 µM]	D = 88.6*	E = ·
> C[C@@H]1CN([C@@H](C)CO)C(=O)c2cc(-c3ccc(C#N)cc3)cnc2O[C@@H]1CN(C)C(=O)Nc1ccc(F)cc1
  A = -0.4	B = 51.3	C = -0.6[16.7 µM]	D = 91.7*	E = ·
> C[C@H](CO)N1C[C@H](C)[C@H](CN(C)C(=O)Nc2ccc3c(c2)OCO3)Oc2ncc(C#Cc3ccc(F)cc3)cc2C1=O
  A = 74.1*	B = -1.4	C = -10.9[16.7 µM]	D = -1.6	E = ·
> CO[C@H]1CN(C)C(=O)c2cc(NC(=O)c3cccc(F)c3)ccc2OC[C@@H](C)N(C(C)=O)C[C@H]1C
  A = 13.0	B = ·	C = 13.7[16.7 µM]	D = ·	E = ·
> C[C@@H]1CN([C@@H](C)CO)C(=O)c2cc(NS(=O)(=O)c3ccc(Cl)cc3)ccc2O[C@H]1CN(C)Cc1ccc(Oc2ccccc2)cc1
  A = 17.6	B = 3.2	C = -10.1[16.7 µM]	D = 11.4	E = ·
> O=C(O)CCCC(=O)Nc1ccccc1Br
  A = 71.3*	B = -13.5	C = -3.8	D = 3.3	E = 1.1
> O=C(NCC1CCCO1)c1ccc(NC(=O)c2ccc([N+](=O)[O-])cc2)cc1 (stereo not drawn)
  A = -13.7	B = -2.2	C = -0.2	D = 1.7	E = 0.3
> CCCNC(=O)N(C)C[C@@H]1Oc2ncc(C#CC3CCCCC3)cc2C(=O)N([C@H](C)CO)C[C@@H]1C
  A = -1.6	B = 51.3	C = 47.6[16.7 µM]	D = 106.0*	E = ·
> CCCNC(=O)N(C)C[C@H]1Oc2ncc(C#CC3CCCCC3)cc2C(=O)N([C@@H](C)CO)C[C@@H]1C
  A = 7.1	B = 37.7	C = 9.9[16.7 µM]	D = 109.1*	E = ·
> C[C@H](CO)N1C[C@H](C)[C@@H](CN(C)C(=O)C2CCOCC2)Oc2ncc(C#CCc3ccccc3)cc2C1=O
  A = 8.3	B = 18.1	C = ·	D = 86.4*	E = ·
> C[C@H](CO)N1C[C@H](C)[C@@H](CN(C)C(=O)Nc2ccccc2)Oc2ncc(C#CC3CCCC3)cc2C1=O
  A = 78.2*	B = 29.7	C = -2.2[16.7 µM]	D = 1.7	E = ·
> C[C@@H]1CN([C@H](C)CO)C(=O)c2cc(C#CC3CCCCC3)cnc2O[C@H]1CN(C)C(=O)Nc1ccccc1
  A = -0.7	B = 9.2	C = ·	D = 3.0	E = ·
> CC(C)NC(=O)N[C@@H]1CC[C@H](CC(=O)NCCN2CCCC2)O[C@H]1CO
  A = -1.2	B = -5.8	C = ·	D = -2.5	E = ·
> CC(C)CC#Cc1ccc2c(c1)O[C@H](CN(C)C(=O)NC1CCCC1)[C@@H](C)CN([C@@H](C)CO)S2(=O)=O
  A = ·	B = 11.8	C = 42.8[16.7 µM]	D = -3.5	E = ·

# Some of these compounds in order of the Glyco luc inh value, falling.
SMILES	Glyco luc inh
CC(=O)Nc1ccc2cc3ccc(NC(C)=O)cc3nc2c1	36.3*
Cc1nn(C(=O)c2cccnc2)c(C)c1Sc1ccc(Br)cc1	1.5
O=C(O)CCCC(=O)Nc1ccccc1Br	1.1

# Screens: PubChem, Broad Institute
